System: crop plants, for example oilseed rape
Test: Stunting: mean plant height after azole application
Format: in vivo
Conditions: dosage 250 g/ha, comparative 11.7 cm
Source text: As already mentioned above, some azoles known from the prior art, which are recommended in combination with abscisic acid to increase plant resistance against abiotic stress (cf. WO2007/008580 A; diniconazole and uniconazole), lead to an undesirable degree of stunting in some crop plants, for example oilseed rape.
In the case of application of the inventive azoles, this stunting occurs to a lower or non-undesirable degree: […]

Question: With diniconazole as the substance, how does the “Mean plant height (cm)” value read?
Answer: Its value is 6.7 cm.
